Test results reported in patent US9161951B2, “Parenteral nutrition composition containing iron” (priority 2005, dated 2015).

Tests used:
[1] = cited from earlier work
[2] = 30-hour period of testing, 25±2° C.

Row | Substance | effect of iron compound added to lipid-containing TPN/PN admixture ([1]; TPN formulation containing lipid) | compatibility with amino acid-dextrose parenteral admixtures ([1]; amino acid-dextrose parenteral admixtures (no lipid)) | stability of nutritional emulsions / emulsion integrity (creaming, phase-separation, visible fat globule formation) [2]
1 | iron dextran | caused breakdown of the admixture, coalescence of lipid droplets, and cracking and creaming of the lipid component | compatibility | 
2 | soluble ferric pyrophosphate [soluble FePPi] |  |  | did not significantly alter the stability of nutritional emulsions or disrupt their integrity
